Experimental findings from PMC3644557 (Methods (San Diego, Calif.), 2012) are described below.

In assay [1] the target is recombinant His-tagged apical membrane antigen 1 (His-AMA1), unlabeled (Plasmodium falciparum, UniProt Q7KQK5 1-622). As to the kind of experiment: SPR.
For assay [2], the target named is NT495-His-AMA1 (Plasmodium falciparum, UniProt Q7KQK5 1-622, fluorescent dye NT495, position not stated). As to the kind of experiment: fluorescence polarisation.

As for DITQQAKDIGAGPVASCFTTRMSPPQQICLNSVVNTALS (biotin, position not stated) [biotinylated RON2 peptide], in assay [1], the dissociation constant Kd is 13 ± 1 nM. For the same molecule, the 50% effective concentration (EC50) in assay [2] turned out to be 77.1 ± 0.2 nM.
